These results are taken from ChEMBL document CHEMBL1137389, “Synthesis and biological properties of novel, uracil-containing histone deacetylase inhibitors” (J Med Chem, 2006).

Amino acid sequences for entries named in this document (tags omitted).
UniProt O09106, whole entry: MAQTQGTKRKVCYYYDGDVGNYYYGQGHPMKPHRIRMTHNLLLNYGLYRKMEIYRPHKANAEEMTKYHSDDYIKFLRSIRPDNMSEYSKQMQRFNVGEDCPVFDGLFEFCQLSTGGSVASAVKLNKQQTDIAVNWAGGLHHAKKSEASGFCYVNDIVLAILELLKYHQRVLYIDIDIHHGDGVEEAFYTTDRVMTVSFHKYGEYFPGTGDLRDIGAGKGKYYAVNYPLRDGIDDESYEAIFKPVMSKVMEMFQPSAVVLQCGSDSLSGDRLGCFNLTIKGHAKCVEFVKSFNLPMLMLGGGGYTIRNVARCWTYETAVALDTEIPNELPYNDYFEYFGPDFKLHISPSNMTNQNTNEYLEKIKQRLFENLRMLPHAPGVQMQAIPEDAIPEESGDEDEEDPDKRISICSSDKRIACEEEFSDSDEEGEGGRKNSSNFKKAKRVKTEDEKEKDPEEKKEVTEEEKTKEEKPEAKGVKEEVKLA

pIC50: −log10 of the molar value.

The test has as its target Histone deacetylase 1 (Mus musculus, UniProt O09106). Kind of test: Inhibition of mouse HDAC1.

Broadly, the pIC50 is the negative decadic logarithm of the IC50, by convention in mol/L. Lower therefore signals a large IC50. Molecule `CC(/C=C/C(=O)NO)=C\[C@@H](C)C(=O)c1ccc(N(C)C)cc1` [TRICHOSTATIN] gave a negative-log IC50 (pIC50) of 8.74.
